# Experimental data reported in US20110263631A1 (published 2011).
# By UniProt entry, the sequences of proteins in these tests, tags left out.
# UniProt P31652, whole entry: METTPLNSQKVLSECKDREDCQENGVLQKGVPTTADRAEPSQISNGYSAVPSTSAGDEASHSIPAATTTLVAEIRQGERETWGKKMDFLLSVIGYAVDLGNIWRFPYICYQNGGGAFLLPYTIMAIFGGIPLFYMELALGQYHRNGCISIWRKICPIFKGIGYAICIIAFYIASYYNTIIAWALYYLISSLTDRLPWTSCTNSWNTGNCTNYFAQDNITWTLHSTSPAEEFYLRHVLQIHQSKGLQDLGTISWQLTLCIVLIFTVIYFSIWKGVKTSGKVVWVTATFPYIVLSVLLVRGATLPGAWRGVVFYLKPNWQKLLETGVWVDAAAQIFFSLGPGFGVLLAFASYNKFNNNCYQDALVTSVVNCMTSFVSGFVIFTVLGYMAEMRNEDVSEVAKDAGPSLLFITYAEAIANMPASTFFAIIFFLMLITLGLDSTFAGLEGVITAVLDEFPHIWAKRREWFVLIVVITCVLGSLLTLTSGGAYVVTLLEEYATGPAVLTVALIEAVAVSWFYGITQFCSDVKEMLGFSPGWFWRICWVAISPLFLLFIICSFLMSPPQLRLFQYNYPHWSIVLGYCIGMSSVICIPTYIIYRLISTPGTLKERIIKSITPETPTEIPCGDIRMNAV
# Molecular target: SERT (Rattus norvegicus, UniProt P31652)
# Test: 3H-5-HT uptake assay in rat brain synaptosomal preparations
smiles,measurement,value
"CNCC[C@@H](Oc1ccccc1C)c1ccccc1 [Atomoxetine, atomoxetine, reference compound]",IC50,0.0794 µM
